Values of other authors as cited in article PMC8284931 (Journal of biomolecular screening, 2012).

Settings: amoxapine with its 8-OH metabolite included; reported, no reference given; cited from earlier work

Q: For `Clc1ccc2c(c1)C(N1CCNCC1)=Nc1ccccc1O2` [Amoxapine, amoxapine], which “blood concentration safely achieved” value is on record?
A: up to 1.27 μM
